# AlphaSeq binding of Ab-14 heavy chain variants to a spike HR2 peptide

Data: MIT Lincoln Laboratory AlphaSeq set, Li et al. 2023, doi:10.1038/s41467-023-39022-2, as distributed in FLAb.

All variants were tested on one target, the spike HR2 peptide PDVDLGDISGINAS (SARS-CoV-2).

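Phage display of a naive human antibody library on the peptide gave the parent. Designed CDR sequences, proposed from the first random library and measured here. Group labels follow the data file (Ctrl: baseline library sampled from a position-specific scoring matrix, with some repeated check sequences; Rand: our label for a block that the file lists under HC and that is probably the random mutants of the ten best first-round binders; En: ensemble of fine-tuned language models; GP: Gaussian process model; GPLM: also part of the Gaussian process libraries; HC: hill climbing; Gen: genetic algorithm; Gibbs: Gibbs sampling; a sequence that several methods proposed may carry one label only). The assay is AlphaSeq: two haploid yeast populations carry antibody and antigen on their surface. Binding brings cells together so that they mate, and sequencing counts the barcode pairs among the diploids. Each replicate has its own calibration line, from reference interactions of the BCL2 family. There are six technical replicates.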

Parent: Ab-14, a human scFv built as VH, three GGGGS repeats, VL. Only the CDRs of the heavy chain vary.
VH: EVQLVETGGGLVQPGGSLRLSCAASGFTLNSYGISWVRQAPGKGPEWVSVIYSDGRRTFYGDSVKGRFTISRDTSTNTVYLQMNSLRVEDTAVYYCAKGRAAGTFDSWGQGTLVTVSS
VL: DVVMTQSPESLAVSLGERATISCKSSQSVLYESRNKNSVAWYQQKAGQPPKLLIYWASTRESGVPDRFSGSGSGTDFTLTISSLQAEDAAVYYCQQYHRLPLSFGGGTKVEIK

Variants are written as CDR1, CDR2 and CDR3 of the heavy chain (limits as in the source). Parent: GFTLNSYGIS, VIYSDGRRTFYGDSVK, GRAAGTFDS.
Values are log10 of the apparent Kd in nM; lower means stronger binding.
A mean of the replicates is given; it leaves out those without a signal.
"no signal" means that the variant was in the library but no mating with the target was seen in any replicate; the authors take this as a sign of poor binding, and no number exists.

CDR-H1	CDR-H2	CDR-H3	group	mean log10 Kd (nM)	detected
GFSLNSYGIS	VIYSDGRRTFYGDSVK	GKTAGTFDK	GP_Gen	0.74	6/6
GFTLNQYGIS	VIYSDSRRCFYGDSVK	GRAMDTKDS	Ctrl	no signal	0/6
GKSLDEYGIS	VIYADGLRKVYANSVK	GQFDDAMDL	En_Gibbs	3.88	1/6
GFTLNSYGIS	VIYSDGRRTFYNDSVK	GDAAGTFDS	Ctrl	2.28	6/6
GFDLNEYGIS	VIYSDGRRTFYGDSVK	GEAAGTFDL	GP_Gibbs	0.58	6/6
GFDLNEYGIS	VIYADGRRTQYADSVK	GNVAGTFDS	En_HC	-0.06	6/6
GFNLGEYGIS	VIYADGTRKGYANSVK	GAVGGFYLD	En_Gibbs	no signal	0/6
GFDLEEYGIS	VIYADGRRTFYSDSVK	GEAAGTFDL	En_HC	-0.34	6/6
GFDLNEYGIS	VIYADGRRTAYANSVK	GNVAGTFDV	En_Gen	-0.23	6/6
GFDLNEYGIS	VIYADGRRTFYLDSVK	GQLAGTFDT	En_HC	-0.41	6/6
GFTLNSYGIS	VIYSDGRRTAYNDSVK	SRAAFTFDS	Ctrl	no signal	0/6
GFTLNSYGIS	VIYSDGRRTFYDDSTK	GRAAGTFDL	Ctrl	no signal	0/6
GFTLNMYGIS	VIYSDGRRTFYGDSVK	GRAAHTFDS	Ctrl	no signal	0/6
GFTLNEYGIS	VIYSDGRRTQYTDSVK	GRFAGTFDS	Rand	no signal	0/6
GFTLNDYGIS	VIYSDGRRTFYHDSVK	GRAAGTFDQ	Ctrl	1.18	6/6
GFTLNSYGIS	VIYADGRRTFYGDSVK	GKAAGTFDS	Ctrl+GPLM_Gen	0.40	12/12
GFSLNSYGIS	VIYSDGKRTFYGDSVK	GKAAGTFDS	GPLM_Gen	0.75	6/6
GFTLDSYGIS	VIHSDGRRTFYGDCVK	GRAAGTALS	Rand	no signal	0/6
GFTLNSYGIS	VIYSDGRRTAYSDDVK	GRAAGTFDS	Ctrl	0.69	6/6
GFTLNEYGIS	VIYSDGRRTFYQDSVK	GRAAGTFDS	GPLM_HC	0.55	6/6
GFGLNEYGIS	VIYSDGRRTFYKDSVK	GRTAGTFDS	GPLM_Gen	-0.22	6/6
GFDLNEYGIS	VIYADGVRTFYADSVK	GQNAGTFDV	En_Gen	-0.02	6/6
GEVLDEYGIS	VIYADGSRVQYTDAVK	GHLTGAFDM	En_Gibbs	no signal	0/6
WFDLNSYGIS	VIYSDGRRTAYGDSVK	GRTAGTFDS	GP_Gen	1.45	6/6
GFTLNSYGIS	VIYSDGRRTFYQDSVK	GQEAGTFDS	GPLM_HC	0.65	6/6
GFTINSYGIS	VIYADGRRTFYSDSVK	GRAAGTFNS	Ctrl	0.90	1/6
GFSLNEYGIS	VIYSDGKRTFYGDSVK	GRTAGTFWS	GP_Gibbs	-1.17	6/6
GFDFQEYGIS	VIYADGQRSNYSDSVK	GNIGAIFDD	En_Gibbs	no signal	0/6
WFTLNEYGIS	VIYSDGRRTFYRDSVK	GRTAGTFDS	GP_HC	no signal	0/6
GFDLNEYGIS	VIYADGMRTFYSDSVK	GEVAGTFDV	En_Gen	-0.71	6/6
GFDLNEYGIS	VIYADGRRTAYSDSVK	GENAGFFDS	En_HC	2.12	1/6

Further variants, results first:

mean log10 Kd (nM)	detected	CDR-H1	CDR-H2	CDR-H3	group
1.19	5/6	GFTLNSYGIS	VIYSDGRRTFYGDSVK	GFIAGTFDS	Ctrl
no signal	0/6	YFTLNEYGIS	VIYSDGRRTFYRDSVK	GRTAGTFDS	GP_HC
0.79	5/6	GFNLNEYGIS	VIYSDGRRTFYGDSVK	GRFAGTFDS	GPLM_HC
1.72	5/6	GFELNSYGIS	VIYSDGRRTFYIDSVK	GRMAGTFDS	GPLM_Gibbs
no signal	0/6	GFSLNQYGIS	VIYSDGRRTFYSDSVK	GRAAVTFDS	GP_HC
no signal	0/6	GFDLNEYGIS	VIYADGRRTFYTDSVK	GNNAGTFDQ	En_HC
0.44	6/6	GFTLNEYGIS	VIYSDGRRTFYMDSVK	GRTAGTFDT	GP_HC
0.09	6/6	GFSLNSYGIS	VIYSDGRRTWYGDSVK	GRTAGTFDS	GPLM_Gen
no signal	0/6	GFDLQEYGIS	VIYADGARKSYTNSVK	GVWGTTMYV	En_Gibbs
0.18	6/6	GFDLNSYGIS	VIYSDGRRTFYADRVK	GKTAGTFDS	GP_Gen
no signal	0/6	GFDLDEYGIS	VIYADGRRTAYADSVK	GQNAGTFDT	En_Gen
0.01	6/6	GFDLDEYGIS	VIYADGRRTFYADSVK	GTNAGTFDI	En_HC
0.71	6/6	GFDLNEYGIS	VIYADGRRTFYADSVK	GTNGGTFDV	En_HC
-0.72	6/6	GFDLNEYGIS	VIYADGMRTAYADSVK	GEVAGTFDL	En_Gen
no signal	0/6	GFNLDEYGVS	VIYADGNRTQYTEDVK	GTNVGAVDL	En_Gibbs
no signal	0/6	GQDLAEYGIS	VIYADGKRTMYTNDVK	GHNGGQGKT	En_Gibbs
no signal	0/6	GFSLNEYGIS	VIYSDGRRTFYCDSVK	GRAAVTFDQ	GP_HC
1.12	6/6	GFSLNSYGIS	VIYSDGRRTFYDDSVK	GTAAGTFDS	GPLM_Gen
-0.55	6/6	GFTLNEYGIS	VIYSDGRRTFYGDSVK	GKQAGTFDS	GPLM_Gibbs
-0.17	6/6	GFDLNEYGIS	VIYADGSRTAYADDVK	GEVAGTFDI	En_Gen
0.33	6/6	GFSLNDYGIS	VIYSDGRRTFYGESVK	GRTAGTFDS	GPLM_Gen
-0.15	6/6	GFDLDEYGIS	VIYADGMRTAYADSVK	GETAGTFDL	En_Gen
-0.12	6/6	GFDLNEYGIS	VIYADGSRTVYADSVK	GNNAGTFDV	En_Gen
no signal	0/6	GFTLNSYGSS	VIYSDGRRTFYGDSVK	GRAGGTFDS	Ctrl
0.19	6/6	GFTLNDYGIS	VIYSDGRRTSYIDSVK	GRAAGTFDS	GPLM_HC
1.41	1/6	GFTLNSYGIS	VIYSDGERTFYGDSVK	GRQAGTFDS	Ctrl
0.05	6/6	GFELNSYGIS	VIYSDGRRTFYGDSVK	GVLAGTFDT	GP_Gibbs
2.27	5/6	GFDLNSYGIS	VIYSDGRRTFYGDSVK	GNAAGTFDF	GP_Gibbs
no signal	0/6	GVKLNSYGIS	VIYSDGRRTFYGDSVK	GAAAGTFDS	Ctrl
0.06	6/6	GFELNSYGIS	VIYSDGRRTFYTDSVK	GLNAGTFDS	GP_Gibbs
no signal	0/6	GFTLNSYGIS	VIYSDGLRTFYGDEVK	GRNAGTFDQ	Ctrl

Again, the first 4 entries without any signal:

CDR-H1	CDR-H2	CDR-H3	group	mean log10 Kd (nM)	detected
GFTLNQYGIS	VIYSDSRRCFYGDSVK	GRAMDTKDS	Ctrl	no signal	0/6
GFNLGEYGIS	VIYADGTRKGYANSVK	GAVGGFYLD	En_Gibbs	no signal	0/6
GFTLNSYGIS	VIYSDGRRTAYNDSVK	SRAAFTFDS	Ctrl	no signal	0/6
GFTLNSYGIS	VIYSDGRRTFYDDSTK	GRAAGTFDL	Ctrl	no signal	0/6

The authors' rule: three or more of the six replicates give a measured affinity, fewer mean a poor binder.
The parent sequence was in this pool as ten entries: three were never detected, three once, and four in most replicates, with averages from 0.34 to 2.37.
Values of this round are not directly comparable with the first-round values of the same sequences.
A sequence that the file lists under several names has all its replicates pooled.
As a blank, each scFv also met three strains without target: over all heavy chain designs, 1% of these pairings were detected, typically at 2.08 and seldom below 0.84.